TrxR1 substrate – is turned over as a substrate by rat TrxR1. O89049. Potency, µM (series often up to 114 µM), without a hit: top-dose activity change, negative = substrate turnover. purified TrxR1 substrate turnover, NADPH consumption readout. AID 588456. hit rate 0.01% among 390,000; further: potency means the concentration at half of the fitted maximal effect; on the % scale 0 is the no-effect control and ±100 the full control effect; nearly all actives have a fitted effect of over 50% in size
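Rat TrxR1, dispensed at 90 nM, was prereduced with 400 uM NADPH (final) for 5 min at ~22 deg C, then incubated with compound 15 min before 400 uM selenite. A first-read NADPH fluorescence drop versus no-compound background flagged substrates.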
PINK1 expr mod – changes PINK1 expression. PINK1 immunofluorescence, high-content cytometry, 24 h. Potency, µM (doses to about 76.6 µM), for the others: at the highest dose activation (PINK1 increase), hits mostly activators. hit rate 0.2% among 410,000. AID 624263; active means well fitted activation curve with a large enough effect; inconclusive means small, poorly fitted or top-dose-only effect; cell line not stated here; further: potency means the concentration at half of the fitted maximal effect; % of control where 0% means no effect; nearly all actives have a fitted effect of over 65% in size
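PINK1 protein, normally rapidly degraded, was detected by immunofluorescence after 24 hour compound treatment of a stable cell line. Titration data (5 concentrations) came from laser-scanning cytometry, with CCCP-treated wells as controls.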
GALK inhibitor – blocks human galactokinase activity; P51570; Purified GALK, Kinase-Glo residual ATP luminescence; Potency, µM (series often up to 57.5 µM), for the others: top-dose activity change, negative = inhibition, usual class: inhibitors; hit rate 0.007% among 270,000; AID 1868; further: potency means the concentration at half of the fitted maximal effect; on the % scale 0 is the no-effect control and ±100 the full control effect
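GALK at 5 nM final was combined with compound, 35 uM ATP and 100 uM galactose in HEPES pH8.0 with MgCl2 and DTT. The reaction ran one hour at room temperature before luminescent ATP detection.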
miR-21 reporter – miR-21 reporter, rising signal; Potency, µM (titrated, usually from 38.3 µM), without a hit: at the highest dose reporter change, positive = more light; AID 2288; 340,000 tested, under 10 active; HeLa miR-21 FLuc reporter, luciferase, 48 h; active = well fitted rising curve with a large enough effect; inconclusive = small, poorly fitted or top-dose-only effect; inactive = no such curve, though single readings can be large or run the other way;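 note: % of control where 0% means no effect; miR-21 action dims this reporter so a rising signal means less miR-21 action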
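Luminescence from a firefly luciferase reporter carrying a miR-21 binding site downstream, stably expressed under a CMV promoter in HeLa cells that make miR-21 endogenously, reports miRNA modulation after 48 h compound exposure up to approximately 40uM final.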
rTrxR1 inhibitor – rat TrxR1 inhibition | hit rate 1% among 390,000 | recombinant rTrxR1, NADPH fluorescence consumption, selenite substrate | Potency, µM (highest dose often 114 µM), for inactives: at the highest dose activity change, negative = inhibition, hits mostly inhibitors; further: potency means the concentration at half of the fitted maximal effect; on the % scale 0 is the no-effect control and ±100 the full control effect; nearly all actives have a fitted effect of over 65% in size
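Rat TrxR1 (90 nM in the dispensed reagent) was pre-reduced with 400 uM NADPH for 5 min at room temperature, then incubated with compound for 15 min. After 400 uM selenite was added, NADPH fluorescence (Ex 340/Em 450 nm) was followed for 8 min.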
* hit, by the source's call; [ ] = another dose, or the depositor's remark. Sampled rows, rich in hits. Any-hit rate of the full collection: about 1.1%. Unless noted, the call rests on the fitted dose curve; in most records, active means well fitted curve in the direction sought with a large enough effect; inconclusive means small, poorly fitted or top-dose-only effect, or another doubt; inactive means no such curve, though single readings can be large; an effect the other way counts as inactive or inconclusive.

Screening COC(=O)c1ccccc1NC(=O)c1nc(S(=O)(=O)Cc2cccc(C)c2)ncc1Cl returned TrxR1 substrate 8%, PINK1 expr mod 1%, miR-21 reporter -5% and rTrxR1 inhibitor 1.4µM*.
`CCS(=O)(=O)c1ncc(Cl)c(C(=O)Nc2ccc(S(=O)(=O)N3CCC(C)CC3)cc2)n1` gave TrxR1 substrate -1%, PINK1 expr mod -2%, GALK inhibitor 0%, miR-21 reporter inconclusive and rTrxR1 inhibitor 8.9µM*.
Screening CCOC(=O)c1c(-c2ccccc2)csc1NC(=O)c1nc(S(=O)(=O)CC)ncc1Cl returned TrxR1 substrate 0%, PINK1 expr mod 5%, miR-21 reporter -10% and rTrxR1 inhibitor 3.2µM*.
`CCS(=O)(=O)c1ncc(Cl)c(C(=O)N2CCN(c3ccc(OC)cc3)CC2)n1` gave TrxR1 substrate 6%, PINK1 expr mod 14%, miR-21 reporter inconclusive and rTrxR1 inhibitor 3.2µM*.
`COc1ccc(N2CCN(C(=O)c3nc(SC)ncc3Cl)CC2)cc1` gave TrxR1 substrate 3%, PINK1 expr mod 1%, miR-21 reporter -7% and rTrxR1 inhibitor 12%.
For CS(=O)(=O)N1CCC2(CCCN(Cc3ccccc3)C2)CC1 the results were PINK1 expr mod 1%.
`CC(=O)Nc1ccc(NC(=O)c2nc(S(=O)(=O)Cc3cccc(C)c3)ncc2Cl)cc1` gave TrxR1 substrate 3%, PINK1 expr mod -1%, GALK inhibitor -5%, miR-21 reporter inconclusive and rTrxR1 inhibitor 10µM*.
Screening CCCS(=O)(=O)c1ncc(Cl)c(C(=O)N(Cc2ccccc2)Cc2ccco2)n1 returned TrxR1 substrate 12%[0.457 µM], PINK1 expr mod -1%, miR-21 reporter inconclusive and rTrxR1 inhibitor 1.8µM*.
CCOC(=O)c1c(NC(=O)c2nc(S(C)(=O)=O)ncc2Cl)sc(C(C)=O)c1C was read as TrxR1 substrate 4%, PINK1 expr mod 3%, miR-21 reporter -6% and rTrxR1 inhibitor 1.4µM*.
For CCCS(=O)(=O)c1ncc(Cl)c(C(=O)Nc2ccc(S(=O)(=O)Nc3ncccn3)cc2)n1 the results were TrxR1 substrate -3%, PINK1 expr mod -1%, GALK inhibitor -4%, miR-21 reporter -2% and rTrxR1 inhibitor 45µM*.
For CCOC(=O)c1c(NC(=O)c2nc(SCC)ncc2Cl)sc(C(C)=O)c1C the results were TrxR1 substrate -1%, PINK1 expr mod 0%, miR-21 reporter 2% and rTrxR1 inhibitor 22%.
CCSc1ncc(Cl)c(C(=O)Nc2ccc(S(=O)(=O)Nc3ncccn3)cc2)n1 was read as TrxR1 substrate -3%, PINK1 expr mod -1%, GALK inhibitor 3%, miR-21 reporter -5% and rTrxR1 inhibitor -1%.
CCS(=O)(=O)c1ncc(Cl)c(C(=O)N(Cc2ccccc2)c2ccc(OC)cc2)n1 was read as TrxR1 substrate 4%, PINK1 expr mod -1%, miR-21 reporter inconclusive and rTrxR1 inhibitor 3.5µM*.
Screening COC(=O)c1ccc(NC(=O)c2nc(S(=O)(=O)Cc3cccc(C)c3)ncc2Cl)cc1 returned TrxR1 substrate -2%, PINK1 expr mod -2%, GALK inhibitor 2%, miR-21 reporter 20% and rTrxR1 inhibitor 20µM*.
For CCS(=O)(=O)c1ncc(Cl)c(C(=O)Nc2ccccc2)n1 the results were TrxR1 substrate -4%, PINK1 expr mod -2%, miR-21 reporter inconclusive and rTrxR1 inhibitor 2.5µM*.
`CN(c1ccccc1)S(=O)(=O)c1ccc(NC(=O)c2nc(S(C)(=O)=O)ncc2Cl)cc1` gave TrxR1 substrate 0%, PINK1 expr mod -1%, GALK inhibitor 2%, miR-21 reporter inconclusive and rTrxR1 inhibitor 0.79µM*.
For Cc1c(C(=O)NCC2(N3CCOCC3)CCCCCC2)cnn1-c1nccc(-c2ccccc2F)n1 the results were PINK1 expr mod -1%.
CCc1ccc(NC(=O)c2nc(S(=O)(=O)Cc3ccccc3)ncc2Cl)cc1 was read as GALK inhibitor 4% and miR-21 reporter inconclusive.
Screening CCOC(=O)c1ccc(NC(=O)c2nc(S(=O)(=O)Cc3ccccc3)ncc2Cl)cc1 returned TrxR1 substrate 6%, PINK1 expr mod 3%, GALK inhibitor -1%, miR-21 reporter inconclusive and rTrxR1 inhibitor 6.3µM*.
Screening CCc1nnc(NC(=O)c2ccc(-c3ccc(C(C)=O)cc3)o2)s1 returned TrxR1 substrate 8%, PINK1 expr mod 0% and rTrxR1 inhibitor 14µM*.
Screening COc1ccc(C2C=C3CNS(=O)(=O)C3CC2OC(=O)c2ccc(Cl)cc2)cc1 (stereo not drawn) returned TrxR1 substrate -4% and rTrxR1 inhibitor 10%.
Screening COC(=O)c1cc(NC(=O)c2cccc(C(F)(F)F)c2)c(=O)oc1C/C=N/OCc1cccc(Cl)c1Cl returned TrxR1 substrate -5%, PINK1 expr mod 22µM*, GALK inhibitor 4%, miR-21 reporter -4% and rTrxR1 inhibitor 5%[57.1 µM].
COC(=O)c1cc(NC(=O)c2cccc(C(F)(F)F)c2)c(=O)oc1C was read as TrxR1 substrate 2%[11.4 µM], PINK1 expr mod 6%, GALK inhibitor -1%, miR-21 reporter 4% and rTrxR1 inhibitor 8%[11.4 µM].
O=C(/C=C/c1ccccc1)/C=C/c1ccccc1 was read as TrxR1 substrate -13%, PINK1 expr mod -2%, GALK inhibitor -7%, miR-21 reporter inconclusive and rTrxR1 inhibitor 56µM*.
COc1cccc(CNC(=O)c2ccc3c(c2)nc2n3CCC(C)C2)c1OC (stereo not drawn) was read as TrxR1 substrate -5%[57.1 µM], PINK1 expr mod 0%, miR-21 reporter -22% and rTrxR1 inhibitor 6%[57.1 µM].
`COc1ccc(C(C[N+](=O)[O-])c2c(-c3ccccc3)cc3ccccn23)cc1OC` (stereo not drawn) gave TrxR1 substrate -5%, PINK1 expr mod 9%, GALK inhibitor 6%, miR-21 reporter -4% and rTrxR1 inhibitor 16µM*.
`COc1cc(C(C[N+](=O)[O-])c2c(-c3ccccc3)cc3ccccn23)cc(OC)c1OC` (stereo not drawn) gave TrxR1 substrate 0%, PINK1 expr mod 12%, GALK inhibitor 2%, miR-21 reporter 6% and rTrxR1 inhibitor 1.8µM*.
`O=S1(=O)CCO[C@H]2CCCC[C@@H]2N1Cc1ccc(Cl)cc1` gave TrxR1 substrate -6% and rTrxR1 inhibitor -10%.
COc1ccc(C(=S)NCS(=O)(=O)c2ccc(C)cc2)cc1 was read as TrxR1 substrate -3%, PINK1 expr mod -2%, GALK inhibitor 1%, miR-21 reporter -7% and rTrxR1 inhibitor 4µM*.
For Cc1ccc(S(=O)(=O)CNC(=S)c2ccc3ccccc3c2)cc1 the results were TrxR1 substrate -16%, PINK1 expr mod 4%, GALK inhibitor -2%, miR-21 reporter -6% and rTrxR1 inhibitor 40µM*.

Ordered by molecular weight (falling): part of the list above.
For CCCS(=O)(=O)c1ncc(Cl)c(C(=O)Nc2ccc(S(=O)(=O)Nc3ncccn3)cc2)n1 the results were TrxR1 substrate -3%, PINK1 expr mod -1%, GALK inhibitor -4%, miR-21 reporter -2% and rTrxR1 inhibitor 45µM*.
COc1ccc(C(=S)NCS(=O)(=O)c2ccc(C)cc2)cc1 was read as TrxR1 substrate -3%, PINK1 expr mod -2%, GALK inhibitor 1%, miR-21 reporter -7% and rTrxR1 inhibitor 4µM*.
O=C(/C=C/c1ccccc1)/C=C/c1ccccc1 was read as TrxR1 substrate -13%, PINK1 expr mod -2%, GALK inhibitor -7%, miR-21 reporter inconclusive and rTrxR1 inhibitor 56µM*.
